Where “and” joins values, the source holds several entries; their conditions need not be identical. Identical values can stand only once. Like-named read-outs stand apart in the source and are kept apart here.
System: human red cells
Details: for [sulfonamide] in red blood cells, EI: enzymatic method

Cc1c2cc(c(C)[n+]1-c1ccc(S(=O)(=O)Nc3nnc(S(N)(=O)=O)s3)cc1)CCCCCCCCC2
[sulfonamide] in red blood cells, ES: 0.3 µM and 0.6 µM
[sulfonamide] in red blood cells, HPLC: 0.4 µM
amount detected within the blood red cells (membrane penetration) (same conditions, incubation up to one hour, tested form: perchlorate): detected only in very small amounts
[sulfonamide] in red blood cells, EI (t = 30 min, 2 mM sulfonamide, pH 7.4, tested form: perchlorate): 0.5 µM
[sulfonamide] in red blood cells, HPLC (t = 60 min, 2 mM sulfonamide, pH 7.4, HPLC method, tested form: perchlorate): 0.3 µM
[sulfonamide] in red blood cells, EI (t = 60 min, 2 mM sulfonamide, pH 7.4, tested form: perchlorate): 0.5 µM

Reference: US8628771B2, “CA IX-specific inhibitors” (Institute of Virology Slovak Academy of Sciences, priority 2002, dated 2014)
